Experimental data: PubChem BioAssay AID1645851 (National Center for Advancing Translational Sciences (NCATS), 2021)
The list shows a part of the results, in another mix than the full data. Some of these compounds have results that are not shown, active ones among them. The source made the active and inactive calls. Cut-off read from the data, not from the text of the source: active = activity change below about -25%; inactive = the rest.

Protein sequences, listed by entry. Tags and fused reporters are not part of them.
UniProt Q92551, whole entry: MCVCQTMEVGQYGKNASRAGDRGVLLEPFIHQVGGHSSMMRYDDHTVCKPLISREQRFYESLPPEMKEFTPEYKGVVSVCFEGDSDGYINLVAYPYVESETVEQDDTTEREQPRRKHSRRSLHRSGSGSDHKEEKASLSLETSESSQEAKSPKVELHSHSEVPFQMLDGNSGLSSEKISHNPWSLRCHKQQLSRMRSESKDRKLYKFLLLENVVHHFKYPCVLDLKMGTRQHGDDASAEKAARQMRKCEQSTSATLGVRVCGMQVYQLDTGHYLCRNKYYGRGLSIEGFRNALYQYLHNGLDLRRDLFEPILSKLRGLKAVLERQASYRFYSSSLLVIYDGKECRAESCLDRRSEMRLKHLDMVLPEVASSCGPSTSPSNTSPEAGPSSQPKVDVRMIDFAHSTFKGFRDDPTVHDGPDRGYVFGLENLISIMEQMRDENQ

The molecules below were run against Inositol hexakisphosphate kinase 1 (Homo sapiens) (UniProt Q92551) (assay: Primary qHTS assay for small molecule inhibitors of Inositol hexaphosphate kinase 1 (IP6K1)). Settings: ADP-Glo luminescence, 2 h, hits give low values.
From the text: Assay Provider: Huijun Wei, M.S., Ph.D. School of Medicine, Johns Hopkins University, Baltimore, MD Inositol hexakisphosphate kinases (IP6Ks) catalyze pyrophosphorylation of inositol hexakisphosphate (IP6) into inositol 5-diphospho-1,2,3,4,6-pentakisphosphate (IP7), which is involved in numerous areas of cell physiology including glucose homeostasis, blood coagulation and neurological development. Inhibition of IP6Ks may be effective for the treatment of Type II diabetes, thrombosis, and psychiatric disorders. We performed a quantitative high throughput screen (qHTS) of 158,410 compounds for IP6K1 inhibitors using ankinase activity ADP-Glo Max assay. […] Medicinal chemistry SAR efforts in three chemical series identified potent IP6K1 inhibitors, which were further validated in an orthogonal LC-MS IP7 analysis.
PROTOCOL TABLE SEQUENCE No. (e.g., 1, 2, 3, etc.); […] (e.g., Cells, Incubation, Reagent, etc.); VALUE and DESCRIPTION. 1. Reagent, 3 uL of 1.3 mM ATP and 130 uM IP6 mixture in assay buffer was dispensed to a white, 1536-well assay plate. 2. Compound, 23 nL of compounds of the top two doses (57.5 uM and 19.1 uM final concentration) of the libraries were dispensed into the mixture using the Kalypsis pintool. 3. Reagent, 1 uL of 2.4 uM IP6K1 was dispensed to the assay plates. 4. Incubation, 2 hr incubation at room temperature. 5. Reagent, 2 uL of ADP-Glo reagent was added to the wells. 6. Incubation, 1 hr incubation at room temperature. 7. Reagent, 4 uL or ADP-Glo substate was added to the wells. 8. Incubation, 45 min incubation at room temperature. 9. Detection, luminescence signal was detected using the ViewLux microplate imager (PerkinElmer).
% is set by controls: 0 for no effect and ±100 for the full control effect.
Note: series mostly up to about 58 µM.

Compound	activity change
CN(C)C1(CNC(=O)c2cccc(Cl)c2)CCCCC1	inactive: 6.17%
CN(C)C1(CNC(=O)c2ccccc2F)CCCCC1	inactive: -7.76%
CCOc1cccc(C(=O)NCC2(N(C)C)CCCCC2)c1	inactive: -2.32%
CN(C)C1(CNC(=O)c2ccccc2[N+](=O)[O-])CCCCC1	inactive: 12.4%
CCCCOc1ccccc1C(=O)NCC1(N(C)C)CCCCC1	inactive: 19%
COc1ccc(C(=O)NCC2(N(C)C)CCCCC2)cc1Cl	inactive: 22.1%
Cc1cccc(C(=O)NCC2(N(C)C)CCCCC2)c1	inactive: -7.42%
COc1cc(C(=O)NCC2(N(C)C)CCCCC2)cc(OC)c1OC	inactive: 15.3%
CC(C)Oc1ccc(C(=O)NCC2(N(C)C)CCCCC2)cc1	inactive: -23.1%
COc1cccc(C(=O)NCC2(N3CCOCC3)CCCCC2)c1	inactive: 1.58%
CC(C)COc1ccc(C(=O)NCC2(N(C)C)CCCCC2)cc1	inactive: 13.5%
